Experimental data reported in patent US6440434B1, “Skin care composition” (Conopco, Inc., priority 1999, dated 2002).

Biological target: T1, lecithin retinol acyl transferase (LRAT) (Bos taurus, UniProt Q9BGL2)
T1 sequence (Q9BGL2 1-230): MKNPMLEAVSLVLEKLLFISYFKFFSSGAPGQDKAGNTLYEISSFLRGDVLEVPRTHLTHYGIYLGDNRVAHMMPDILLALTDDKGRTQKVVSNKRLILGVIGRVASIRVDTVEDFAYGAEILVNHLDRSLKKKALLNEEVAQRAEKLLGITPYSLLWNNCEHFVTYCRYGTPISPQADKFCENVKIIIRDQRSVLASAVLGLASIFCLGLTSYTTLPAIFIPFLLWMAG
Assay: in vitro Microsomal Assay of retinol esterification, LRAT catalyzed (retinyl laurate)
Type: biochemical, bovine
Details: 100 μM test compound; solvent blank = 100% ester formation

% INHIBITION, LRAT [%] | Substance
10 | delta methyl ionone [reference compound]
9 | dimethyl ionone [reference compound]
